Among the data in PubChem BioAssay AID492992 (Johns Hopkins Ion Channel Center, 2010) are inhibition values, retold here.

The chains behind the UniProt entries cited, without tags or fusion partners.
UniProt Q9NPC2, whole entry: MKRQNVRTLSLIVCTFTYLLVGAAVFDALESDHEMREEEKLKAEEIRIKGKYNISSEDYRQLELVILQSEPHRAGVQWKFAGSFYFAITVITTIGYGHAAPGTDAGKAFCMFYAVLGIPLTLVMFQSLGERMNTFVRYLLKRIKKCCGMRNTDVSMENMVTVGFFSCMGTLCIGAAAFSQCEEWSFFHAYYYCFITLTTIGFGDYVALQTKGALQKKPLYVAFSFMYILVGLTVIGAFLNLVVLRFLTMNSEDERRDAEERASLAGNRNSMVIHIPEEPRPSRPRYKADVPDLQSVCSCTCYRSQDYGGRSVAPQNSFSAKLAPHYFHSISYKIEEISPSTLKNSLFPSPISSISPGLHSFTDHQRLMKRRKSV

This is a selection; strong and weak results do not stand in their true shares. Calls of active or inactive are those of the source.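 The calls were made as follows: active = thallium signal inhibited by more than 5 SD of the compound-free buffer control wells, on both duplicate plates; inactive = the rest.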

The target of this experiment is Potassium channel subfamily K member 9 (Homo sapiens) (UniProt Q9NPC2). As to the kind of experiment: KCNK9 potassium channel inhibitors, confirmation, HEK293 cells, thallium flux, duplicate (AID 492992).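 Also: 0% = assay buffer control wells without compound.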 As to conditions: FluxOR thallium flux fluorescence, at 10 µM, hits give high values.
`COc1cccc(C(=O)N(c2cc(C)cc(C)c2)C2CCN(C(=O)OC(C)(C)C)CC2)c1`: the inhibition is active: 39.5%.
`CC(C)(C)OC(=O)N1CCC(N(C(=O)c2ccccc2)c2ccc(Cl)cc2)CC1`: the inhibition is active: 66%.
In the case of `CC(C)(C)OC(=O)N1CCC(N(C(=O)c2ccccc2)c2ccc(F)cc2)CC1` it was active: 76%; in that of `Cc1cc(C)cc(N(C(=O)c2ccccc2)C2CCN(C(=O)OC(C)(C)C)CC2)c1`, active: 58.5%.

Broadly, the inhibition is the share of the control response that was lost under treatment.
